Assay outcomes (PubChem BioAssay)
Shown are actives, neighbours in structure and some others; about 2.2% of the full set was active somewhere.
SIRT5 block: inhibitors of human sirtuin-5 desuccinylase | inhibition, % at 15 µM | AID 652115 | 330,000 tested, 1.1% active | Q9NXA8 | Purified SirT5, succinyl-peptide AMC, trypsin-coupled fluorescence; in the data active = inhibition above about 15%; inconclusive = no clear call, values can overlap the other calls
ERp5 block: blocks human ERp5 reductase activity on insulin. 350,000 tested, 0.05% active. Q15084. ERp5 insulin aggregation, absorbance 650 nm, 90 min. AID 651711. inhibition, % at 9.99 µM;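 active = mean replicate inhibition above about 25%, with every replicate also reaching it, limit read from the data, passing the limit was not always enough; inconclusive = only one of those two criteria met; inactive = neither criterion met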
Yeast UUG start: alters start codon recognition fidelity in yeast | S. cerevisiae UUG-firefly luciferase reporter, luminescence/redox ratio | activity score, % at 18.7 µM | hit rate 0.13% among 350,000 | AID 602363;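 active means replicate mean at a twofold rise or more, about +100% in these data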;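 further: firefly luciferase made from a UUG start codon reports start codon fidelity; reporter light over untreated wells divided by growth signal over untreated wells; some hits fall short of that in this replicate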
S100A4 MyoIIA: blocks human S100A4 binding to myosin IIA peptide | P26447 | S100A4/TAMRA-MyoIIA peptide fluorescence polarization | inhibition, % at 10.7 µM | 360,000 tested, 0.14% active;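 active = mean inhibition of at least 70% across replicates, with every replicate also reaching that level; inconclusive = mean inhibition reaches 70% but some replicates fall short; inactive = mean inhibition below 70%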
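Test system: S100A4 monomer protein. Medium: HEPES buffer with Ca2+, pH 7.2. Reagent: fluorescent myosin IIA peptide, 5 nM. Compound dosing: single-point compound testing. Timing: 5 min between mix addition and reading. Benchmarks: DMSO neutral and TFP positive wells.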
FGF22 binding: shifts melting point of recombinant human FGF22; Q9HCT0; recombinant FGF22 thermal shift, SYPRO orange fluorescence; percent of sucrose octasulfate shift, DMSO zero; activity (Tm shift, normalised), % at 9.99 µM; 340,000 tested, 1.5% active;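 active = mean Tm shift, scaled 0 neutral to 100 positive control, at about 1.3% or above, every replicate too, limit read from the data; inconclusive = no clear call, values can overlap the other calls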
PDI inh: inhibitors of human protein disulfide isomerase. P07237. PDI insulin aggregation turbidity, A650, 90 min. inhibition, % at 10 µM. 350,000 tested, 0.052% active;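 active = mean inhibition across replicates of 30% or more, whatever share of single replicates reach that level; inconclusive = mean inhibition below 30% while every single replicate reaches 30%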
Active calls of the source: *; ? = inconclusive; / = no result given; + = active, no number.

SMILES | SIRT5 block | ERp5 block | Yeast UUG start | S100A4 MyoIIA | FGF22 binding | PDI inh
O=C(NCCSc1c[nH]c2ccccc12)c1ccc(Br)o1 | 2 | -1 | -13 | -1 | 0 | /
CCCN1C[C@H](C)[C@H](OC)CN(C)C(=O)c2cc(NC(=O)CC(F)(F)F)ccc2OC[C@@H]1C | -2 | -3 | / | -4 | 0 | /
CN1C(=O)/C(=C/c2ccc(C(=O)Nc3ccc(O)cc3C(=O)O)cc2)SC1=S | 28* | 17 | -18 | -13 | 0 | -2
CC(C(=O)NC1C(=O)N2C(C(=O)O)=C(CSc3nnnn3C)CSC12)n1cc(Cl)cn1 (stereo not drawn) | 1 | -1 | / | -24 | 43* | 2
Cc1c(Cl)c(C(F)F)nn1CC(=O)NC1C(=O)N2C(C(=O)O)=C(CSc3nnnn3C)CSC12 (stereo not drawn) | -2 | -2 | / | -5 | 0 | -1
Cc1c(Cl)cnn1CC(=O)NC1C(=O)N2C(C(=O)O)=C(CSc3nnnn3C)CSC12 (stereo not drawn) | -3 | -2 | / | 2 | 43* | 3
COc1ccc(S(=O)(=O)N2C[C@@H](O)COC[C@@H]3O[C@@H](CC(=O)NCCCN4CCOCC4)CC[C@H]32)cc1 | -6 | 8 | -7 | -9 | 0 | /
COc1cc(/C=C2\SC(=S)N(C(C(=O)O)c3ccccc3)C2=O)ccc1O (stereo not drawn) | 4 | 5 | -3 | -16 | / | 24
COc1cc(/C=C2\SC(=S)N(NS(=O)(=O)c3ccccc3)C2=O)ccc1O | 1 | 1 | -23 | -6 | 0 | 41*
CCOc1ccc(/C=C2/SC(=S)N(C(C(=O)O)c3ccccc3)C2=O)cc1OCC (stereo not drawn) | 10 | -8 | / | -2 | 7.5* | 15
CCOc1cc(/C=C2\SC(=S)N(C(C(=O)O)c3ccccc3)C2=O)ccc1O (stereo not drawn) | 11 | 0 | 0 | -9 | / | 35*
COc1cc(/C=C2\SC(=S)N(NS(=O)(=O)c3ccc(C)cc3)C2=O)ccc1O | 4 | -6 | / | -18 | 1 | ?
CCOc1ccc(N2C(=O)/C(=C\c3ccc(O)c(OC)c3)S(=O)(=O)C2c2cccc([N+](=O)[O-])c2)cc1 (stereo not drawn) | -1 | -6 | 9 | 0 | 44* | -4
Cn1nnnc1Sc1ccc([N+](=O)[O-])cc1Cl | 17* | 7 | / | 7 | 0 | 8
O=[N+]([O-])c1ccc(Sc2nnnn2-c2ccccc2)c(Cl)c1 | / | / | 12 | / | / | -2
CN(C)c1cccc(C(=O)N/C=C/n2cnc3cc(C(F)(F)F)ccc32)c1 | -4 | 4 | / | -4 | 43* | 3
C[C@@H]1CN([C@H](C)CO)C(=O)c2cc(NC(=O)CCC(F)(F)F)ccc2O[C@H]1CN(C)C | 1 | 10 | -21 | -18 | 0 | /
CSc1ccc(C(=O)C2CCCN(C(=O)c3ccc4c(c3)OCO4)C2)cc1 (stereo not drawn) | 16* | 1 | 35 | 2 | 0 | -1
O=C(c1cccc(Cl)c1)C1CCCN(C(=O)c2ccc3c(c2)OCO3)C1 (stereo not drawn) | -2 | 1 | -3 | -3 | 0 | 0
COc1ccc2c3c([nH]c2c1)[C@H](CO)N(CC1CC1)CC31CN(C(=O)c2ccccc2)C1 | / | / | / | / | 0 | /
COc1ccc(-c2nc(C)ncc2-c2csc(C)n2)c(O)c1 | / | / | / | / | / | 14
COc1ccc(-c2nc(N)ncc2-c2csc(C)n2)c(O)c1OC | 2 | 1 | -3 | 0 | 44* | -17
COCC(=O)N(C)C[C@@H]1Oc2ncc(C#CCC3CCCC3)cc2C(=O)N([C@H](C)CO)C[C@H]1C | 7 | 1 | 23 | 2 | 0 | /
Cc1noc(C)c1NC(=O)Nc1ccc2c(c1)CC(=O)N([C@H](C)CO)C[C@@H](C)[C@@H](CN(C)Cc1ccc(-c3ccccc3)cc1)O2 | 16* | -2 | / | 5 | 0 | /
COc1ccc(NC(=O)Nc2ccc3c(c2)CC(=O)N([C@@H](C)CO)C[C@@H](C)[C@H](CN(C)Cc2ccccc2)O3)cc1 | 6 | -3 | 22 | 96* | 0 | /
COc1ccc(NC(=O)Nc2ccc3c(c2)CC(=O)N([C@H](C)CO)C[C@H](C)[C@@H](CN(C)Cc2ccc(Oc4ccccc4)cc2)O3)cc1 | 23* | 0 | 23 | 4 | 0 | /
CC(C)NC(=O)NCC[C@@H]1CC[C@@H](NC(=O)CCN2CCCCC2)[C@H](CO)O1 | 2 | 2 | / | -3 | 0 | /
COc1ccccc1CN1[C@@H]2c3cccc(=O)n3C[C@@H]2[C@@H](CO)[C@@H]1C(=O)NCCc1ccncc1 | -5 | -2 | / | 4 | 0 | /
CCCNC(=O)N1C[C@H]2[C@@H](c3ccccc31)[C@@H](CO)N2CC1CCCCC1 | / | / | -1 | / | / | /
COc1ccc(NC(=O)Nc2ccc3c(c2)CC(=O)N([C@@H](C)CO)C[C@@H](C)[C@H](CN(C)C(=O)Nc2ccc4c(c2)OCO4)O3)cc1 | 2 | -3 | 8 | -2 | 0 | /
Cc1cccn2cc(-c3cc4ccccc4oc3=O)nc12 | -2 | 0 | -16 | -1 | 43* | -2
O=c1oc2ccccc2cc1-c1cn2ccccc2n1 | -2 | 0 | / | -2 | 0 | -7
S=c1[nH]c(-c2ccccc2)cn1/N=C/c1ccc(Br)cc1 | -1 | 3 | / | 1 | 43* | -5
C[C@H](CO)N1C[C@H](C)[C@H](CN(C)S(=O)(=O)c2cccs2)OCCCC[C@H](C)Oc2ccc(NC(=O)Nc3cccc4ccccc34)cc2C1=O | / | / | -6 | / | 0 | /
O=C1NC(=O)C2(Br)Nc3ccc(Br)cc3C(=O)C2N1 (stereo not drawn) | 1 | 0 | -10 | 1 | 1.4* | 3
COC(=O)c1ccccc1-c1c2ccc(=N)cc-2oc2cc(N)ccc12 | 2 | -17 | -91 | + | -5 | -8
COC(=O)c1ccccc1-c1ccc(/C=N/NC(=O)c2cc3ccccc3o2)o1 | / | / | -8 | / | / | 3
C[C@H]1CN([C@@H](C)CO)C(=O)c2cc(-c3ccccc3F)cnc2O[C@H]1CN(C)C(=O)c1cnccn1 | -15 | 3 | / | 5 | 0 | /
COc1cc(/C=N/NC(=O)C(=O)NCC2CCCO2)ccc1OCC(=O)N1CCOCC1 (stereo not drawn) | 0 | 2 | / | -5 | 44* | 0
C[C@H](CO)N1C[C@H](C)[C@H](CN(C)C(=O)c2cnccn2)Oc2ncc(-c3cccc(C#N)c3)cc2C1=O | 6 | -2 | 9 | 6 | 0 | /
C[C@@H]1CN([C@H](C)CO)C(=O)c2cc(NC(=O)Nc3ccc(C(F)(F)F)cc3)ccc2O[C@@H]1CN(C)C(=O)Nc1ccc2c(c1)OCO2 | 15* | 5 | -4 | -1 | 0 | /

Profiles as entered above. Order of values: SIRT5 block	ERp5 block	Yeast UUG start	S100A4 MyoIIA	FGF22 binding	PDI inh
COC(=O)c1ccccc1-c1ccc(/C=N/NC(=O)c2cc3ccccc3o2)o1 in the list: /	/	-8	/	/	3
C[C@H]1CN([C@@H](C)CO)C(=O)c2cc(-c3ccccc3F)cnc2O[C@H]1CN(C)C(=O)c1cnccn1 in the list: -15	3	/	5	0	/
COc1cc(/C=N/NC(=O)C(=O)NCC2CCCO2)ccc1OCC(=O)N1CCOCC1 (stereo not drawn) in the list: 0	2	/	-5	44*	0
C[C@H](CO)N1C[C@H](C)[C@H](CN(C)C(=O)c2cnccn2)Oc2ncc(-c3cccc(C#N)c3)cc2C1=O in the list: 6	-2	9	6	0	/
C[C@@H]1CN([C@H](C)CO)C(=O)c2cc(NC(=O)Nc3ccc(C(F)(F)F)cc3)ccc2O[C@@H]1CN(C)C(=O)Nc1ccc2c(c1)OCO2 in the list: 15*	5	-4	-1	0	/
